# Values of other authors as cited in patent US20070224637A1, “Oxidative protection of lipid layer biosensors” (priority 2006, published 2007).
Compound,Solubility In alcohol,Solubility In oil,Solubility In water (in water)
O=S([O-])O.[Na+] [Sodium bisulfite],Slightly,,
O=S([O-])[O-].[Na+].[Na+] [Sodium sulfite],,No,
Acetone sodium bisulfite,No,No,Yes
Sodium thiosulfate,No,,
